From publication PMC8449414, “Rational design of ASCT2 inhibitors using an integrated experimental-computational approach” (Proceedings of the National Academy of Sciences of the …, 2021)

The chains behind the UniProt entries cited, without tags or fusion partners.
UniProt Q15758, whole entry: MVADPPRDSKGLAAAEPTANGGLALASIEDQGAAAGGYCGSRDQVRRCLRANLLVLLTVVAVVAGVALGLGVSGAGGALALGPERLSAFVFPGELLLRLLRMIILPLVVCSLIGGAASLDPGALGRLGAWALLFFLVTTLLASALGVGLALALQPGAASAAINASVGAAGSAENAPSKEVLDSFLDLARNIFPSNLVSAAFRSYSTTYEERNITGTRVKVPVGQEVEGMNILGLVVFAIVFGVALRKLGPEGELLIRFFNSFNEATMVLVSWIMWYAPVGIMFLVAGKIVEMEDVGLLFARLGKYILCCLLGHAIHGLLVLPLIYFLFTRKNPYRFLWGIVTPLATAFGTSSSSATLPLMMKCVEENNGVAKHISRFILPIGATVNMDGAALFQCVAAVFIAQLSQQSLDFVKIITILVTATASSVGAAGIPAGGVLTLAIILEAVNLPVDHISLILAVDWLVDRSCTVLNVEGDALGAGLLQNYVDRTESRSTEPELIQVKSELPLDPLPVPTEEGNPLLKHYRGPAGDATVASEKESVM
UniProt P51907, whole entry: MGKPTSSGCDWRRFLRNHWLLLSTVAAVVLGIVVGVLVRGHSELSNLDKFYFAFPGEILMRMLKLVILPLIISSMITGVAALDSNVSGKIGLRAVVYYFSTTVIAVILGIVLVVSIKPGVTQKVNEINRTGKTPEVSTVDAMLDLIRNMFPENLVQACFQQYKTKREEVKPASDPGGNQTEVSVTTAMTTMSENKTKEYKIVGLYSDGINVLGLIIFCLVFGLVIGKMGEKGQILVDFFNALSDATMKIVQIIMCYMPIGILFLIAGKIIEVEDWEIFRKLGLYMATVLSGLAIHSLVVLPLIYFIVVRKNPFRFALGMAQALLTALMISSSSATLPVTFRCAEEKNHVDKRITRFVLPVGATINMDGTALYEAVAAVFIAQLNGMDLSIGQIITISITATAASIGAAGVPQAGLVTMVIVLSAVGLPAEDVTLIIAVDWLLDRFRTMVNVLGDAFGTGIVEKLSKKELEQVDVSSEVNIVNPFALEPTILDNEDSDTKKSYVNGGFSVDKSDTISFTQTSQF

Experiments:
hASCT2 = hASCT2 (Homo sapiens, UniProt Q15758); test: Glutamine transport assay in proteoliposomes reconstituted with purified hASCT2; details: read-out: IC50, inhibition of glutamine uptake in proteoliposomes; in the presence of 5 µM glutamine
From the text: Our computational models predicted Lc-BPE as a competitive inhibitor targeting the substrate binding site. To test this prediction, we performed electrophysiological competition experiments in the presence of varying concentrations of the substrate, L-alanine. The results were consistent with a competitive inhibition mechanism (SI Appendix, Fig. S4). At low inhibitor concentrations, the alanine-induced currents were inward, as expected from transported substrates, indicative of the inability of Lc-BPE to displace alanine from the binding site. However, as inhibitor concentration increased, the currents became outwardly directed in a dose-dependent manner, which marked the displacement of alanine by the inhibitor (SI Appendix, Fig. S5). The apparent Ki increased as a function of the alanine concentration, as anticipated for a competitive mechanism (SI Appendix, Figs. S5 and S6). […]
cells. […] Current s traces were recorded using an Adams and List EPC7 amplifier and digitized using a Molecular Devices Digidata A/D converter.
Data analysis was performed as described previously 46. Linear and nonlinear curve fitting of the experimental data were analyzed using MicroCal Origin software. […]

rEAAT3 = rEAAT3 (Rattus norvegicus, UniProt P51907); test: Electrophysiology: SLC1 specificity, anion current in transfected HEK293 cells; details: 0 mV, 10 mM glutamate and 130 mM NaSCN internal, No current = no outward current up to highest concentration tested (§ 20-50, || 100-400, # 1500-2500 µM)
Experimental: We also tested the specificity of Lc-BPE for ASCT2 over other SLC1 family members (ASCT1, EAAT1-3, and EAAT5). […] However, the apparent affinity of human ASCT1 (hASCT1) for Lc-BPE was ∼3.8-fold lower than that of rASCT2 (SI Appendix, Fig. S3 B and C), showing slight preference for ASCT2. For the EAATs, the highest affinity interaction of Lc-BPE was with hEAAT5, Ki of 2.22 ± 0.46 µM, which was ∼3-fold higher Ki than rASCT2, while interaction with EAAT1, EAAT2, and EAAT3 was weaker (SI Appendix, Fig. S3).
Fig. S3. SLC-1 specificity of Lc-BPE. […] (B-C) Dose response curves obtained from currents recorded a fter application of Lc-BPE extracellularly to cells transiently expressing hASCT2, rASCT2, hASCT1 (panel B) and rEAAT1, rEAAT2, rEAAT3 and hEAAT5 (panel C) respectively. […]
Human embryonic kidney 293 (HEK293, ATCC CRL -11268) cells were cultured in DMEM media supplemented with 10% (v/v) fetal bovine serum (FBS), 2 mM glutamine, 1% penicillin streptomycin solution, 1 mM sodium pyruvate and non -essential amino acids. […] Cells were analyzed using electrophysiological techniques 24-40 hours after transfection. […]
cells. […] Current s traces were recorded using an Adams and List EPC7 amplifier and digitized using a Molecular Devices Digidata A/D converter. […]

## O=C(O[C@@H]1CN[C@H](C(=O)O)C1)c1ccc(C(=O)c2ccccc2)cc1
hASCT2
  IC50: 207 µM
rEAAT3
  Binding affinity Ki: No current
